Measurements: PubChem BioAssay AID940 (Emory University Molecular Libraries Screening Center, 2007)
This is a selection; strong and weak results do not stand in their true shares. The source made the active and inactive calls.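 The calls were made as follows: active = compounds whose cAMP rise, as percent of the full-agonist control response, exceeds 60; inactive = the rest.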

Chains of the proteins cited; added tags and fusions are not shown.
UniProt P43116, whole entry: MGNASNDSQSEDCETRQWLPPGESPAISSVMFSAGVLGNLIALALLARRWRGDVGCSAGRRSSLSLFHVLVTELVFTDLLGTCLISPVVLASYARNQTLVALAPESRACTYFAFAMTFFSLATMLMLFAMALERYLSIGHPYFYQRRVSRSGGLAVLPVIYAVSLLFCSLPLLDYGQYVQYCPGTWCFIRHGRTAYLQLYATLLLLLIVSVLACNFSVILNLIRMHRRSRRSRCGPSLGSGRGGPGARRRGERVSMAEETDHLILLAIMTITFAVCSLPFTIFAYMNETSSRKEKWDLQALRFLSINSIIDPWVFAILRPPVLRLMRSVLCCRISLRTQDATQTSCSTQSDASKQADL

molecular target: Prostaglandin E2 receptor EP2 subtype (Homo sapiens) (UniProt P43116); experiment: EP2 receptor modulators, cAMP readout, primary screen, cell-based, HTRF cAMP, PGE2 stimulation (AID 940); settings: EP2-expressing cells, cAMP HTRF FRET, PGE2 co-stimulation; at 25 µM; hits give high values;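 also: rat C6 glioma line stably carrying human EP2 under a CMV promoter; the protocol text gives 20 µM as final concentration; 100% = response of wells given 1 µM PGE2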

| SMILES | induction |
| --- | --- |
| COc1ccccc1OP(C)(=O)Nc1ccc(C)c(C)c1 (stereo not drawn) | inactive: 0.05% |
| COc1ccc(OP(C)(=O)Nc2ccccc2Br)cc1 (stereo not drawn) | inactive: -14.2% |
| Cc1cc(C)cc(OP(C)(=O)Nc2cccc(C(F)(F)F)c2)c1 (stereo not drawn) | inactive: 50.4% |
| CP(=O)(OCCOc1ccccc1)OCCOc1ccccc1 | inactive: -21.7% |
| CP(=O)(Nc1ccc(Cl)cc1Cl)Oc1ccccc1 (stereo not drawn) | inactive: -13.6% |
| [Au].[Au].c1ccc([PH+](c2ccccc2)c2ccccc2)cc1.c1ccc([PH+](c2ccccc2)c2ccccc2)cc1.n1n[n-]c(-c2nnn[n-]2)n1 | inactive: -15.6% |
| Cc1nc2ccc3ccccc3c2o1.O=[N+]([O-])c1cc([N+](=O)[O-])c(O)c([N+](=O)[O-])c1 | inactive: -19.8% |
| COc1ccc(OP(C)(=O)Nc2ccccn2)cc1 (stereo not drawn) | inactive: 4.49% |
| CN(C)CCOC(=O)C(O)(c1ccccc1)C1CCCC1 (stereo not drawn) | inactive: -14.9% |
| COc1ccccc1OP(C)(=O)Nc1ccc(Br)cc1 (stereo not drawn) | inactive: -1.47% |
| CP(=O)(Nc1ccccn1)Oc1ccccc1 (stereo not drawn) | inactive: -15.8% |
| COc1ccccc1OP(C)(=O)Nc1ccc(C)cc1C (stereo not drawn) | inactive: 36.9% |
| CCc1ccc(OP(C)(=O)O)cc1 | inactive: -4.23% |
| O=[N+]([O-])c1cc([N+](=O)[O-])c(Nc2ccccn2)c([N+](=O)[O-])c1 | inactive: -8.35% |
| Cc1c(NP(C)(=O)Oc2ccc(C(C)C)cc2)c(=O)n(-c2ccccc2)n1C (stereo not drawn) | inactive: 25.6% |
| OCCSCCO | inactive: -1.99% |
| O=C(OCCCN1CCCC1)C(O)(c1ccccc1)C1CCCCC1 (stereo not drawn) | inactive: -33.1% |
| CP(=O)(Oc1ccccc1)N1CCOC1=O (stereo not drawn) | inactive: -21% |
| CCc1ccc(OP(C)(=O)Nc2cccnc2)cc1 (stereo not drawn) | inactive: 16.7% |
| CCN(CC)CC(O)COC(=O)C(O)(c1ccccc1)C1CCCCC1 (stereo not drawn) | inactive: -6.39% |
| COc1ccc(OP(C)(=O)Nc2ccc(Br)cc2)cc1 (stereo not drawn) | inactive: -50.3% |
| N#[O+].[C-]#N.[C-]#N.[C-]#N.[C-]#N.[C-]#N.[Fe+2].[Na+].[Na+] | inactive: 16.6% |
| CN(C)C(=O)c1c([N+](=O)[O-])cc([N+](=O)[O-])cc1[N+](=O)[O-] | inactive: -4.41% |
| CC(C)(C)c1ccc(OP(C)(=O)O)cc1 | inactive: 4.29% |
| COc1ccccc1OP(C)(=O)Nc1ccccc1Br (stereo not drawn) | inactive: 14.3% |
| CP(=O)(Nc1ccc(Cl)cc1)Oc1ccc(F)cc1 (stereo not drawn) | inactive: -3.91% |
| CCOC(=O)c1ccc(NP(C)(=O)Oc2ccc(Cl)cc2)cc1 (stereo not drawn) | inactive: -81.9% |
| CP(=O)(OC12CC3CC(CC(C3)C1)C2)OC12CC3CC(CC(C3)C1)C2 | inactive: 20.3% |
